The chains behind the UniProt entries cited, without tags or fusion partners. Residues count along the entry.
UniProt P53667, 330-637: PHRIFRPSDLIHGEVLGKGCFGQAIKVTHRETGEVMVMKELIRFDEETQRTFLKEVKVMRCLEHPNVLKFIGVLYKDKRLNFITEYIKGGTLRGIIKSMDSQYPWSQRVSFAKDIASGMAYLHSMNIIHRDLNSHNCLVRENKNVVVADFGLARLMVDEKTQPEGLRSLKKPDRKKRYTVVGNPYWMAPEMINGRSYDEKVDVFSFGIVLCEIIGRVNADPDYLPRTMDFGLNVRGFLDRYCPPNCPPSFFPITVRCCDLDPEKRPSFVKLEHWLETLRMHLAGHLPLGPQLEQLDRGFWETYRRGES
UniProt P53671, 330-632: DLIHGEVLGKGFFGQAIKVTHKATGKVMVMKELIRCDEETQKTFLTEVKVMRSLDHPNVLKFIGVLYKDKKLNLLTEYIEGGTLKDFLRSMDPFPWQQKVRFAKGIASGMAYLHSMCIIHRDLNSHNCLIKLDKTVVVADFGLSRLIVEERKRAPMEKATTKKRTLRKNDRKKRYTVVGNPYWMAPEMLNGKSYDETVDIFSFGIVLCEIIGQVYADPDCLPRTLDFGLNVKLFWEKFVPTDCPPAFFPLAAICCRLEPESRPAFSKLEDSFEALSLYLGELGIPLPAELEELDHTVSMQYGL

According to paper PMC6835155, “Lessons from LIMK1 enzymology and their impact on inhibitor design” (Biochemical Journal, 2019):

Tests used:
LIMK1KD = LIMK1KD (Homo sapiens, UniProt P53667); test: Differential (dynamic) scanning fluorimetry (DSF) assay, LIMK1KD
LIMK2KD = biological target: T1, LIMK2KD (Homo sapiens, UniProt P53671); test: Differential (dynamic) scanning fluorimetry (DSF) assay, LIMK2KD; assay type: binding; conditions: 10 µM
T1 construct: The cDNA coding for LIMK2 residues 330 to 632 was PCR amplified; His6 (N, cleaved yes); made in house; host or cells: baculovirus; Sf9 for virus, TriEx insect cells for expression

SMILES: CN1CC[C@H](c2c(O)cc(O)c3c(=O)cc(-c4ccccc4Cl)oc23)[C@H](O)C1.Cl [Flavopiridol HCl]
- TM Shift LIMK1 (K) (LIMK1KD): 1.4 K
- TM Shift LIMK2 (K) (LIMK2KD): 1.4 K
